Our source for the inhibition values is PubChem BioAssay AID588852 (The Scripps Research Institute Molecular Screening Center, 2011).

Sequences of proteins named here, by UniProt entry; tags and fusion partners are left off.
UniProt P11229, whole entry: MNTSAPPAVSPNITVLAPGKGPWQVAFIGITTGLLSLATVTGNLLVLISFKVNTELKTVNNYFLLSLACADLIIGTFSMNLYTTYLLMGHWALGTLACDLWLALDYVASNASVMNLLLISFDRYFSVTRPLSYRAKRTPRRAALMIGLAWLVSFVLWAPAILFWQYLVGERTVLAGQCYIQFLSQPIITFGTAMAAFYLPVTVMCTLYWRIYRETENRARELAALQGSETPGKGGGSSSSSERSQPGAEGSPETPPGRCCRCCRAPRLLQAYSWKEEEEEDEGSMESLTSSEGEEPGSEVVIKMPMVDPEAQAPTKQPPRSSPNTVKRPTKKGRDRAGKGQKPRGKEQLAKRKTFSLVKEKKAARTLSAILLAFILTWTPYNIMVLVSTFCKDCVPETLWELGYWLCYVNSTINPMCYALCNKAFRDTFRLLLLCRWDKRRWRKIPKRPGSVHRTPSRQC

Only a part is listed here, and it is no random draw. Active and inactive are the calls of the source.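 How the source made its calls: active means percent inhibition above its own plate's cutoff, namely the mean of that plate's compound wells plus 3 SD; inactive means the rest.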

In the test the target is Muscarinic acetylcholine receptor M1 (Homo sapiens) (UniProt P11229). The test can be described thus: human M1 muscarinic receptor antagonists, primary screen, CHO-K1 cells, Fluo-8 calcium fluorescence, 1536-well (AID 588852).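 Further: peak over basal fluorescence ratio during 140 s after agonist addition; 0% = ACh EC80 plus DMSO and 100% = DMSO alone without agonist.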 Particulars: CHO-K1 hM1, Fluo-8 calcium fluorescence, ACh EC80 antagonist; at 3 µM; stronger effect = higher value.
One may read the inhibition as the change of the read-out against control, counted positive when it falls. With `O=c1[nH]c2ccccc2n1C1CCN(C(c2cccs2)c2nnnn2C2CCCCC2)CC1` (stereo not given), the inhibition is inactive: -7.61%. The result for `COc1ccc(C(=O)NCC2(N3CCOCC3)CCCCC2)cc1OC` reads inactive: -6.96%; that for `O=c1[nH]c2ccccc2n1C1CCN(C(c2ccnc3ccccc23)c2nnnn2C2CCCC2)CC1` (stereo not given), inactive: 18.9%; that for `CCCCn1nnnc1C(c1ccccc1)N1CCC(n2c(=O)[nH]c3ccccc32)CC1` (stereo not given), inactive: 27.9%. To `COc1cc(C(=O)NCC2(N3CCOCC3)CCCCC2)cc(OC)c1C` belongs inactive: -8.5%; to `O=C(NCC1(N2CCOCC2)CCCCC1)c1cc(Br)ccc1Cl`, inactive: -9.53%. In the case of `O=c1[nH]c2ccccc2n1C1CCN(C(c2cccs2)c2nnnn2C2CCCC2)CC1` (stereo not given), the inhibition is inactive: -21.7%. Consider `CCCCn1nnnc1C(c1cccc(OC)c1OC)N1CCC(n2c(=O)[nH]c3ccccc32)CC1` (stereo not given), for which the inhibition was inactive: 30.6%. In the case of `COc1cccc(C(c2nnnn2C(C)(C)C)N2CCC(n3c(=O)[nH]c4ccccc43)CC2)c1OC` (stereo not given), the inhibition was inactive: -15.5%. To `CCOC(=O)N1CCC(Nc2ccc(C)cc2)CC1` belongs inactive: -13.7%; to `N/C(=N\O)c1c(N)no[n+]1[O-]`, inactive: -10%. To `N#Cc1ccc(C(=O)NCC2(N3CCCCC3)CCCCC2)cc1` belongs inactive: 0.43%. The result for `CC(C)(C)OC(=O)N1CCC(N(C(=O)c2ccccc2)c2ccc(Cl)cc2)CC1` reads inactive: -7.39%; that for `CC(C)(C)n1nnnc1C(c1cccc2ccccc12)N1CCC(n2c(=O)[nH]c3ccccc32)CC1` (stereo not given), inactive: -28.5%; that for `CN(C)C1(CNC(=O)c2cccc(C#N)c2)CCCCC1`, inactive: -8.6%. With `c1ccc(CN2CCC(Nc3ccccc3)CC2)cc1`, the inhibition is inactive: -14.8%. Take `Cc1cc(N(CCCl)CCCl)ccc1C=O`: the inhibition is inactive: -19.7%. The result for `CCCN1CCC(Nc2cc(OC)cc(OC)c2)CC1` reads inactive: -26.4%. The result for `O=c1[nH]c2ccccc2n1C1CCN(C(c2ccccc2)c2nnnn2C2CCCC2)CC1` (stereo not given) reads inactive: -19.3%.

In the case of `Cc1ccc(C(=O)NCC2(N3CCCCC3)CCCCC2)o1`, the inhibition is inactive: -6.63%. `Fc1ccccc1NC1CCN(Cc2ccccc2)CC1`: the inhibition was inactive: -10.4%.

For the compound `Cc1ccc(NC2(C#N)CCN(Cc3ccccc3)CC2)cc1`, the inhibition is inactive: -9.86%. Regarding `CC(=O)N(c1ccccc1)C1CCNCC1`, the inhibition is inactive: -16%. The result for `COc1cccc(C(c2nnnn2C2CCCCC2)N2CCC(n3c(=O)[nH]c4ccccc43)CC2)c1OC` (stereo not given) reads inactive: 8%. To `CCC(c1nnnn1C1CCCCC1)N1CCC(n2c(=O)[nH]c3ccccc32)CC1` (stereo not given) belongs inactive: -20.1%; to `O=c1[nH]c2ccccc2n1C1CCN(C(c2ccnc3ccccc23)c2nnnn2C2CCCCC2)CC1` (stereo not given), inactive: -17.9%.

Consider `COc1cc(OC)cc(C(=O)NCC2(N3CCCCC3)CCCCC2)c1`, for which the inhibition was inactive: -16.8%. Turning to `O=C(NCC1(N2CCCCC2)CCCCC1)c1ccco1`, the inhibition was inactive: -10.6%. To `Cn1c(=O)[nH]cc(N(CCCl)CCCl)c1=O` belongs inactive: 18.8%. The result for `CN(C)c1ccc(C(=O)NCC2(N3CCCCC3)CCCCC2)cc1` reads inactive: -13.2%; that for `Cc1ccccc1NC1(C#N)CCN(Cc2ccccc2)CC1`, inactive: -2.3%. With `CC(C)(C)n1nnnc1C(c1ccnc2ccccc12)N1CCC(n2c(=O)[nH]c3ccccc32)CC1` (stereo not given), the inhibition was inactive: -35.1%. On to `CCN1CCC(Nc2cccc(F)c2)CC1`, for which the inhibition was inactive: 2.35%. As for `COc1ccc(C(c2nnnn2C2CCCCC2)N2CCC(n3c(=O)[nH]c4ccccc43)CC2)cc1` (stereo not given), the inhibition is inactive: 1.76%. For the compound `CC(C)(C)OC(=O)N1CCC(Nc2ccccc2)CC1`, the inhibition was inactive: -2.92%. The result for `O=C(O)C1(Nc2ccccc2)CCN(Cc2ccccc2)CC1` reads inactive: -17.7%; that for `CCCOc1ccc(C(=O)NCC2(N(C)C)CCCCC2)cc1`, inactive: 7.32%. For `O=c1[nH]c2ccccc2n1C1CCN(C(c2cc3ccccc3o2)c2nnnn2C2CCCC2)CC1` (stereo not given), the inhibition was inactive: -21%. As for `CCOc1ncccc1C(=O)NCC1(N2CCOCC2)CCCCC1`, the inhibition was inactive: 14.2%. To `CN1CCC(Nc2ccc(F)c(Cl)c2)CC1` belongs inactive: -12.5%. Regarding `CN1CCC(Nc2ccc(Cl)cc2)CC1`, the inhibition was inactive: -18.2%. As to `COc1cccc(C(=O)N(c2cc(C)cc(C)c2)C2CCN(C(=O)OC(C)(C)C)CC2)c1`, the inhibition was inactive: 7.93%. The result for `COc1cc(OC)cc(C(=O)NCC2(N3CCOCC3)CCCCC2)c1` reads inactive: -22.9%; that for `COc1cccc(C(c2nnnn2C2CCCC2)N2CCC(n3c(=O)[nH]c4ccccc43)CC2)c1OC` (stereo not given), inactive: -26.1%; that for `CSc1ccccc1C(=O)NCC1(N2CCCCC2)CCCCC1`, inactive: -8.65%. The result for `Cc1cccc(NC2(C#N)CCN(Cc3ccccc3)CC2)c1` reads inactive: -13.9%. Take `COc1ccc(C(=O)NCC2(N3CCCCC3)CCCCC2)cc1`: the inhibition was inactive: -1.5%. In the case of `CCC(c1nnnn1C1CCCC1)N1CCC(n2c(=O)[nH]c3ccccc32)CC1` (stereo not given), the inhibition was inactive: -19.9%. In the case of `CC(C)(C)OC(=O)N1CCC(N(C(=O)c2ccccc2)c2ccc(F)cc2)CC1`, the inhibition was inactive: -11.1%. To `COc1ccc(C(=O)NCC2(N3CCCCC3)CCCCC2)c(OC)c1OC` belongs inactive: 3.35%; to `O=C(NCC1(N2CCCCC2)CCCCC1)c1ccc(=O)[nH]c1`, inactive: -4.68%; to `CCCCn1nnnc1C(c1cccs1)N1CCC(n2c(=O)[nH]c3ccccc32)CC1` (stereo not given), inactive: -6.88%. Take `O=C(NCC1(N2CCCCC2)CCCCC1)c1cccs1`: the inhibition is inactive: -10.7%.

In the case of `CCCCn1nnnc1C(CC)N1CCC(n2c(=O)[nH]c3ccccc32)CC1` (stereo not given), the inhibition is inactive: -13.8%.

For the compound `O=c1[nH]c2ccccc2n1C1CCN(C(c2cc3ccccc3o2)c2nnnn2C2CCCCC2)CC1` (stereo not given), the inhibition is inactive: -18.3%. `O=C(NCC1(N2CCCCC2)CCCCC1)c1ccc(Cl)s1`: the inhibition is inactive: 0.03%.

On to `N#CC1(Nc2ccccc2)CCN(Cc2ccccc2)CC1`, for which the inhibition was inactive: -11.2%. Regarding `COc1ccc(Cl)cc1C(=O)NCC1(N2CCOCC2)CCCCC1`, the inhibition is inactive: -5.43%. In the case of `CCOC(=O)N1CCC(Nc2ccc(OC)cc2)CC1`, the inhibition is inactive: -3.86%.

For `CCCCn1nnnc1C(c1ccc(OC)cc1)N1CCC(n2c(=O)[nH]c3ccccc32)CC1` (stereo not given), the inhibition was inactive: 24.2%.
